Measured values as given in PubChem BioAssay AID588590 (National Center for Advancing Translational Sciences (NCATS), 2011).
Only a part is listed here, and it is no random draw. Records with an inconclusive call do not appear. Calls of active or inactive are those of the source. Calls come from the whole dose curve; as a rule, active = well fitted inhibition curve with a large enough effect; inconclusive = small, poorly fitted or top-dose-only effect, or another doubt; inactive = no such curve, though single readings can be large or run the other way.

Chains of the proteins cited; added tags and fusions are not shown.
UniProt Q9UNA4, whole entry: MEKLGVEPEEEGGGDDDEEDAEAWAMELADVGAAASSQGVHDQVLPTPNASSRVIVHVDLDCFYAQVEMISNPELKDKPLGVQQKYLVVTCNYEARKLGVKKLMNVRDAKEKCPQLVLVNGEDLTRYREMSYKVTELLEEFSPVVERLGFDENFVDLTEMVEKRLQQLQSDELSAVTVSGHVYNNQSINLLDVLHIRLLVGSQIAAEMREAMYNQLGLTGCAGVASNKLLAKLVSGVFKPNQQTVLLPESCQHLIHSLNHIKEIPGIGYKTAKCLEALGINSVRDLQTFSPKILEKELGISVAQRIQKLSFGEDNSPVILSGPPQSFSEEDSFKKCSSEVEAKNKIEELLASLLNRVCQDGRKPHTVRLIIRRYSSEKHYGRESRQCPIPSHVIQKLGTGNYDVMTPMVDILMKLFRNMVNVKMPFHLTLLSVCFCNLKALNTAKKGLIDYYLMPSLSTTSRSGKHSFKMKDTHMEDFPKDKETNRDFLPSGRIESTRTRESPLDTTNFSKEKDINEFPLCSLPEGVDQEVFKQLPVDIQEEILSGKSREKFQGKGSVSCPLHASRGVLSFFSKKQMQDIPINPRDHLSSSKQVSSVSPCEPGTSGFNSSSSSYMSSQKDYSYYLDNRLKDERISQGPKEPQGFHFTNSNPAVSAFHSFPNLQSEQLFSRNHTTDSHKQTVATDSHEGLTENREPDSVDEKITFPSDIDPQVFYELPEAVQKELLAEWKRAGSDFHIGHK

Each molecule was assayed against DNA polymerase iota (Homo sapiens) (UniProt Q9UNA4) (assay: qHTS for Inhibitors of Polymerase Iota). Details: Pol iota fluorescent replication assay, 10 min; at 115 µM (top of the series).

Row | SMILES | activity, negative = inhibition
1 | CCC(=O)N(c1ccccc1)C1(COC)CCN(CCn2nnn(CC)c2=O)CC1 | inactive: 12.2%
